Results as given in patent publication US12458581B2, “Carboxylic acid loaded salt carrier and the method for producing thereof” (priority 2021, dated 2025).

experiment: Application as additive in liquid shaving soap; conditions: additive 1 or 2 % wt
From the text: The mix was stirred with hard soap pieces remaining undissolved and placed for 50 seconds at 600 W in a microwave oven. […] The mixture was placed for 80 seconds in a microwave at 600 W. Thereafter the resulting mixture was hand-blended and filled into a jar for testing and storage.

With “calcium citrate with loaded acetic acid [CaCit-HAc [2]]” the “stability (>24 h)” value was “yes”.

experiment: pH measurement of 0.1 M aqueous solutions; type: physicochemical; conditions: 0.1 M in millipore water, r.t., average of at least three measurements
From the text: For the pH measurements, a Seven2Go portable pH meter S2 (pH measuring-range: −2 to 20; resolution: 0.01) with an InLab Ultra Micro-ISM electrode (measuring range: pH −1 to pH 11; low temperature membrane glass type; ceramic diaphragm; reference system with Ag^+ ion trap by argenthal) as well as with an in-lab routine pH electrode (measuring range: pH 0 to pH 14; ceramic diaphragm; reference system with Ag^+ ion trap by argenthal) from Mettler-Toledo AG (Analytical, Switzerland) was used.
For sake of comparability, compounds of the same loading ratio n=2, which is 2:1 of the loaded carboxylic acid with respect to the carrier carboxylic acid, were selected for this analysis. […] The analytes were dissolved in millipore water, stirred for 5 minutes in an airtight vial to perform the pH measurements thereafter at r.t. All measurements were performed at 0.1 molar (M) concentration of the samples, which is 0.1 mol per liter (mol/L).
For sake of reliability, every result stated is the average of at least three single measurements. […] The numbers 1-73 (nr., first row) are used as an assignment for the 73 pairs, comprising the compound of invention (third row), the corresponding carrier carboxylic acid (fourth row) and the loaded carboxylic acid (fifth row), as used in the FIG. 6.

First: CC(=O)O.CC(=O)O.CC(=O)O.CC(=O)O.CC(=O)O.O=C1OC(C(O)CO)C([O-])=C1O.O=C1OC(C(O)CO)C([O-])=C1O.[Ca+2] (centres unmarked) [CaAsc-HAc [5]]
Second: calcium citrate with loaded acetic acid [CaCit-HAc [2]]
The pH values compound of the first is lower: 4.15 for the first, 4.77 for the second.

Going from “calcium citrate with loaded acetic acid [CaCit-HAc [6]]” to “calcium citrate with loaded formic acid [CaCit-HFo [2]]”, the pH values compound falls from 4.15 to 3.77.

Compared with “calcium glutamate with loaded acetic acid [CaGlu-HAc [4]]”, “magnesium aspartate with loaded salicylic acid [MgAsp-Sal [2]]” is lower in pH values compound: 4.35 for the first, 3.79 for the second.

For “magnesium glutamate with loaded lactic acid [MgGlu-HLac [2]]”, the pH values compound was 4.00.
